Patent US9776992B2, “1-oxo-1,2-dihydroisoquinolin-7-yl-(5-substituted-thiophen-2-yl)-sulfonamide compounds, formulations containing those compounds, and their use as AICARFT inhibitors in the treatment of cancers” (Eli Lilly and Company, priority 2014, dated 2017)

Amino acid sequences for entries named in this document (tags omitted). A change or cut given only in a name is not applied to a line headed by its entry.
UniProt P31939: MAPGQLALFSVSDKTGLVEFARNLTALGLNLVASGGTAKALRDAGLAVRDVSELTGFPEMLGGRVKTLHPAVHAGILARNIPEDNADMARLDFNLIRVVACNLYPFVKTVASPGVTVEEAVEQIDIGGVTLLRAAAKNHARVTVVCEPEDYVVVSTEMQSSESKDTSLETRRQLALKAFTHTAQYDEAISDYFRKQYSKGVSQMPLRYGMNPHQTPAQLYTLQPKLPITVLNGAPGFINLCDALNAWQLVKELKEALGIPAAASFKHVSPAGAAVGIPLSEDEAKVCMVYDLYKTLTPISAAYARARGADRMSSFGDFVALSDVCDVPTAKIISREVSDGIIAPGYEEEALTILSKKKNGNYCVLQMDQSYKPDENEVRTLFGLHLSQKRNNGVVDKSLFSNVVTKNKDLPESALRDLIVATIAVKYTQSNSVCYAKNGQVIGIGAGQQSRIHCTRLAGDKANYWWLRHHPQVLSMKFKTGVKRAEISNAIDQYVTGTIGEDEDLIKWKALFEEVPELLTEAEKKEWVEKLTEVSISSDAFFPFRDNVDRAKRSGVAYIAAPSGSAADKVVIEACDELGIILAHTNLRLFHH

How the values were obtained:
AICARFT [1] = biological target: T1, AICARFT (Homo sapiens, UniProt P31939); experiment: AICARFT enzyme assay (LC-MS of IMP and ZMP); type: biochemical; design: made in house; host or cells: E. coli BL21(DE3); conditions: Mean ± SEM; 25 μM ZMP, 100 μM 10-F-THFA, 3 nM ATIC enzyme, 1 hour at room temperature
Protocol: Human AICARFT (NCBI accession number: NM_004044.6) cDNA is purchased from Openbiosystem Co. (Cat# MHS1011-62310, Clone ID: 4300570, accession: BC008879). The nucleotide sequence encoding full-length human AICARFT is inserted into pET21d (Novagen) vector with an N-terminal HIS tag. Bacterial BL21(DE3) (Novagen) is used as an expression host, and the induction of protein expression is carried out in 2×TY media with 1 mM IPTG at 18° C. overnight. Cell pellets are stored at −80° C. for subsequent protein purification. Protein purification is conducted at 4° C. […] Fractions containing HIS-AICARFT are pooled and protein concentration determined by the Bradford assay using BSA as standard. […]
One of the substrates of the enzyme reaction, 10-formyltetrahydrofolate (10-F-THFA), has limited chemical stability and is therefore synthesized on the same day that the ATIC enzyme assay is performed. […] The color changes from clear to yellow visually, and the complete conversion of folinic acid to 5,10-M-THFA is monitored by spectral analysis using a quartz cuvette. […] The color changes from yellow to clear visually, and the conversion of 5,10-M-THFA to 10-F-THFA is monitored by spectral analysis using a quartz cuvette. […]

AICARFT [2] = biological target: T1, AICARFT; experiment: MS detection of ZMP in low folate media cultured NCI-H460 cells; type: cell-based; design: endogenous in cells; host or cells: NCI-H460; conditions: Mean ± SEM, ZMP concentration by LC-MS, 16 hours
Protocol: Grow NCI-H460 cells in complete high folate RPMI media (ATCC #30-2001) until cellular confluence reaches ˜80%. Wash cells with PBS, trypsinize, resuspend cells in complete low folate RPMI media (Gibco #27016-021) and perform a cell count. Transfer 1.25×10^6 cells to a T225 flask containing complete low folate RPMI media (40 mL). Grow for seven days. Split cells again with complete low folate media if confluence surpasses 80%. Wash cells with PBS, trypsinize, resuspend cells in complete low folate RPMI media, and perform a cell count. Aliquot 10×10^6 cells in complete low folate media (1 mL)+5% DMSO per cryovial. Use a cell freezing apparatus to freeze cells in a slow and controlled manner in a −80° C. freezer. The next day, transfer cells to liquid nitrogen for long term storage. Thaw frozen cells from cryovial in 37° C. water bath, wash cells once with low folate assay medium: folate free RPMI 1640 medium (Gibco, #27016-021), Glucose (Sigma, #G5767), Hepes (Hyclone, #SH30237.01), Na Pyruvate (Hyclone, #Sh30239.01), 10% FBS (Hyclone, #SH30070.03). […]
The cellular effects of AICARFT inhibition on the concentrations of ZMP, 2′-deoxyuridine 5′-monophosphate (dUMP) and N^1-(β-D-Ribofuranosyl)-5-aminoimidazole-4-carboxamide (AICAr) are determined by LC-MS. […]

| IC50 (AICARFT [1]) | IC50 (AICARFT [2]) | SMILES |
| --- | --- | --- |
| 13.8 nM | 25 nM | O=c1[nH]ccc2cc(F)c(NS(=O)(=O)c3ccc(N4CC[C@H](O)C4)s3)cc12 [Example 8, N-(6-Fluoro-1-oxo-1,2-dihydroisoquinolin-7-yl)-5-[(3S)-3-hydroxypyrrolidin-1-yl]thiophene-2-sulfonamide] |
| 15 nM | 22 nM | O=c1[nH]ccc2cc(F)c(NS(=O)(=O)c3ccc(N4CC[C@@H](O)C4)s3)cc12 [Example 1, N-(6-Fluoro-1-oxo-1,2-dihydroisoquinolin-7-yl)-5-[(3R)-3-hydroxypyrrolidin-1-yl]thiophene-2-sulfonamide] |
